The values that follow come from US20180153840A1, “THE COMPOSITIONS OF GLYCEROL AND /OR NON-TOXIC AMINO ACIDS FOR INHIBITING AND DESTROYING BIOFILM, INCLUDING RELATED METHODS” (priority 2015, published 2018).

Assay [1] has as its system C. albicans biofilm. Briefly: Fungal biofilm inhibition assay. The assay is classed as cell-based, Candida albicans. Particulars: sustained inhibition assay, 0.4% amino acid. The procedure: (§1) For fungal biofilm assays, all solutions were prepared in RPMI 1640 medium. All bacterial biofilm solutions were prepared in Trypic Soy Broth (TSB), supplemented with 1% glucose (henceforth referred to as TSB-G). All subsequent procedures were performed in a manner that maintained sterility. A solution of each amino acid to be tested was prepared in weight to volume concentrations ranging from 0.1-5.0%. Amino acids were also tested in combinations. Compound solutions were homogenized with gentle agitation in the dark (4° C., 24 hours) before use.
(§2) All biofilm assays were performed using 384-well non-tissue culture treated polystyrene plates. The fungal species tested are as follows: Candida albicans, Candida guilliermondii Candida parapsilosis, Candida glabrata, Candida tropicalis and Candida dubliniensis. The bacterial species tested are as follows: Staphylococcus aureus (standard wild type and methicillin-resistant strain USA300), Escherichia coli, Pseudomonas aeruginosa and Staphylococcus epidermidis.
Fungal strains were streaked on Yeast Peptone Dextrose (YPD) agar plates and incubated at 30° C. for 48 hours. A single colony from each strain to be tested was inoculated into YPD broth and grown for 12 hours, at 30° C., shaking at 225 rpm. […] Media was carefully aspirated and the biofilm was measured for fungal cell concentration by optical density at 600 nm. […]

Assay [2] relates to C. albicans biofilm. Briefly: Fungal biofilm disruption assay. In kind it is cell-based, Candida albicans. Particulars: 0.4% amino acid. Here is the method:
as §1, §2
For the fungal biofilm disruption assays, 80 μL of RPMI-1640 was added to the plate, along with 1 μL of overnight cell culture. The cells were allowed to adhere to the plate for 90 minutes at 37° C. with shaking (350 rpm). […] Media was carefully aspirated and the biofilm was measured for fungal cell concentration by optical density at 600 nm. […]

As to `N[C@@H](CCS)C(=O)O` [Homocysteine, L-homocysteine], the “Reduce F Biofilm” value in assay [1] and in assay [2] was “• (a single dot (●) signifies an effect in a range of about 10 to about 30% change)” in each case.
